Tests used:
Test in all cases: SPR; cytokine immobilised by amine coupling on a ProteOn GLH chip (ProteOn XPR36); S100A6 as analyte, 63 nM–8 µM, 300 s; 25 °C; 10 mM HEPES, 150 mM NaCl, 1 mM CaCl2, 0.05% Tween 20, pH 7.4; heterogeneous ligand model (single-site scheme for IL-2)
[1] = molecular target: Fms-related tyrosine kinase 3 ligand (human) (UniProt P49771)
interleukin-13 (human) = interleukin-13 (human) (UniProt P35225)
interleukin-15 (human) = interleukin-15 (human) (UniProt P40933)
interleukin-19 (human) = interleukin-19 (human) (UniProt Q9UHD0)
interleukin-20 (human) = interleukin-20 (human) (UniProt Q9NYY1)
interleukin-21 (human) = interleukin-21 (human) (UniProt Q9HBE4)
interleukin-24 (human) = interleukin-24 (human) (UniProt Q13007)
interleukin-27 (human) = molecular target: interleukin-27 (human)
interleukin-5 (human) = interleukin-5 (human) (UniProt P05113)
interleukin-9 (human) = interleukin-9 (human) (UniProt P15248)
leptin (human) = leptin (human) (UniProt P41159)
[2] = molecular target: stem cell factor, soluble form (human) (UniProt P21583)

Substance: S100A6 protein (from UniProt P06703 1-90) (natural protein)
- Kd1 (KD, ligand population 1) [1]: 0.122 µM
- Kd2 (KD, ligand population 2) [1]: 0.125 µM
- kd1 (koff, ligand population 1) [1]: 0.000883 s⁻¹
- kd2 (koff, ligand population 2) [1]: 0.000832 s⁻¹
- Kd1 (KD, ligand population 1) (interleukin-13 (human)): 0.197 µM
- Kd2 (KD, ligand population 2) (interleukin-13 (human)): 1.91 µM
- kd1 (koff, ligand population 1) (interleukin-13 (human)): 0.000264 s⁻¹
- kd2 (koff, ligand population 2) (interleukin-13 (human)): 0.0136 s⁻¹
- Kd1 (KD, ligand population 1) (interleukin-15 (human)): 0.057 µM
- Kd2 (KD, ligand population 2) (interleukin-15 (human)): 0.215 µM
- kd1 (koff, ligand population 1) (interleukin-15 (human)): 0.000162 s⁻¹
- kd2 (koff, ligand population 2) (interleukin-15 (human)): 0.00629 s⁻¹
- Kd1 (KD, ligand population 1) (interleukin-19 (human)): 0.147 µM
- Kd2 (KD, ligand population 2) (interleukin-19 (human)): 0.496 µM
- kd1 (koff, ligand population 1) (interleukin-19 (human)): 0.000628 s⁻¹
- kd2 (koff, ligand population 2) (interleukin-19 (human)): 0.0277 s⁻¹
- Kd1 (KD, ligand population 1) (interleukin-20 (human)): 0.0451 µM
- Kd2 (KD, ligand population 2) (interleukin-20 (human)): 0.385 µM
- kd1 (koff, ligand population 1) (interleukin-20 (human)): 0.000308 s⁻¹
- kd2 (koff, ligand population 2) (interleukin-20 (human)): 0.00914 s⁻¹
- Kd1 (KD, ligand population 1) (interleukin-21 (human)): 0.0457 µM
- Kd2 (KD, ligand population 2) (interleukin-21 (human)): 0.387 µM
- kd1 (koff, ligand population 1) (interleukin-21 (human)): 0.000188 s⁻¹
- kd2 (koff, ligand population 2) (interleukin-21 (human)): 0.00568 s⁻¹
- Kd1 (KD, ligand population 1) (interleukin-24 (human)): 0.239 µM
- Kd2 (KD, ligand population 2) (interleukin-24 (human)): 0.601 µM
- kd1 (koff, ligand population 1) (interleukin-24 (human)): 0.000573 s⁻¹
- kd2 (koff, ligand population 2) (interleukin-24 (human)): 0.00779 s⁻¹
- Kd1 (KD, ligand population 1) (interleukin-27 (human)): 1.16 µM
- Kd2 (KD, ligand population 2) (interleukin-27 (human)): 2.8 µM
- kd1 (koff, ligand population 1) (interleukin-27 (human)): 0.000961 s⁻¹
- kd2 (koff, ligand population 2) (interleukin-27 (human)): 0.0147 s⁻¹
- Kd1 (KD, ligand population 1) (interleukin-5 (human)): 0.0116 µM
- Kd2 (KD, ligand population 2) (interleukin-5 (human)): 0.0323 µM
- kd1 (koff, ligand population 1) (interleukin-5 (human)): 0.000247 s⁻¹
- kd2 (koff, ligand population 2) (interleukin-5 (human)): 0.00507 s⁻¹
- Kd1 (KD, ligand population 1) (interleukin-9 (human)): 0.169 µM
- Kd2 (KD, ligand population 2) (interleukin-9 (human)): 0.271 µM
- kd1 (koff, ligand population 1) (interleukin-9 (human)): 0.00597 s⁻¹
- kd2 (koff, ligand population 2) (interleukin-9 (human)): 0.00585 s⁻¹
- Kd1 (KD, ligand population 1) (leptin (human)): 0.325 µM
- Kd2 (KD, ligand population 2) (leptin (human)): 0.385 µM
- kd1 (koff, ligand population 1) (leptin (human)): 0.00318 s⁻¹
- kd2 (koff, ligand population 2) (leptin (human)): 0.000287 s⁻¹
- Kd1 (KD, ligand population 1) [2]: 0.00872 µM
- Kd2 (KD, ligand population 2) [2]: 1.9 µM
- kd1 (koff, ligand population 1) [2]: 0.000257 s⁻¹
- kd2 (koff, ligand population 2) [2]: 0.00451 s⁻¹

From article PMC10526228
